Consider 2 compounds from PMC10793458 (bioRxiv, 2023).

Amino acid sequences for entries named in this document (tags omitted).
UniProt Q86UE8, whole entry: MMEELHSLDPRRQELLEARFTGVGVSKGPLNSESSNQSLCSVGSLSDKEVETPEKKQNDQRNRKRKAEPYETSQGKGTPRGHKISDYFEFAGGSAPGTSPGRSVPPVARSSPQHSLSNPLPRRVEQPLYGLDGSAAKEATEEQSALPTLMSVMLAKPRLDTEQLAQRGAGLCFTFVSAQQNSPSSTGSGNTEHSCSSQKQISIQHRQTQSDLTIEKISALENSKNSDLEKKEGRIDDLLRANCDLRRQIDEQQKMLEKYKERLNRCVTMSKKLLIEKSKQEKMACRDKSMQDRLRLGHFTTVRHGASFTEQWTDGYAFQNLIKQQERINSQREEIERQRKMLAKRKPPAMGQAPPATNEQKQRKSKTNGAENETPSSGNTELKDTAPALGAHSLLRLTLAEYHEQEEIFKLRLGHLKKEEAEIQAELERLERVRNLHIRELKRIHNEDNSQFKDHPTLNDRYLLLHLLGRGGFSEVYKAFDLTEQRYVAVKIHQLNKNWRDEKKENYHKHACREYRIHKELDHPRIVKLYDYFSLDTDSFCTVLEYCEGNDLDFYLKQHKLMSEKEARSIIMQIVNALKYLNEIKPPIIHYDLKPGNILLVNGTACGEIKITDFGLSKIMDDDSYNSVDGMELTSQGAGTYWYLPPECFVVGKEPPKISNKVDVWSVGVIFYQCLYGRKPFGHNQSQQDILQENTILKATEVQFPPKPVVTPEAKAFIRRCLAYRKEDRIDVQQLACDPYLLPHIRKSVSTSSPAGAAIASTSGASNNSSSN

This assay addresses TLK2 (Homo sapiens, UniProt Q86UE8).

In the case of `O=C1Nc2ccc(C(=O)c3ccc(F)cc3)cc2/C1=C/c1ccc[nH]1` [Compound 45, (3Z)-5-[(4-fluorophenyl)carbonyl]-3-(1H-pyrrol-2-ylmethylidene)-2,3-dihydro-1H-indol-2-one], the “fold decrease in TLK2 inhibition” value (relative to 27) is reported as 2–3 fold.
As to `O=C1Nc2ccc(NC(=O)c3ccccc3)cc2/C1=C/c1ncc[nH]1` [Compound 74, N-[(3Z)-3-(1H-imidazol-2-ylmethylidene)-2-oxo-2,3-dihydro-1H-indol-5-yl]benzamide], the “fold less potent on TLK2” value (relative to 73) worked out at 3 fold.
